For the assay, the system named is Wistar rats. The assay is described as follows: Glucose tolerance test in Wistar rats. The format is in vivo, rat. The following applies: 9 1 mg/kg ip; ip 2 g/kg glucose load; 12-h fasted.

The record followed here is PMC9014410, “Discovery of V-0219: A Small-Molecule Positive Allosteric Modulator of the Glucagon-Like Peptide-1 Receptor toward Oral Treatment for “Diabesity”” (Journal of Medicinal Chemistry, 2022).

Consider `FC(F)(F)c1ccc(-c2noc(CN3CCCC(CN4CCOCC4)C3)n2)cc1` (stereo not shown) [compound 9, 4-{[1-({3-[4-(Trifluoromethyl)phenyl]-1,2,4-oxadiazol-5-yl}methyl)piperidin-3-yl]methyl}morpholine], for which the “glucose handling after glucose load” value is recorded as “reducing the time spent in hyperglycemia”.
